Earlier results in paper PMC4583267, “Synthesis and Evaluation of Novel Triterpene Analogues of Ursolic Acid as Potential Antidiabetic Agent” (PLoS ONE, 2015).

Chains of the proteins cited; added tags and fusions are not shown.
UniProt P53341, whole entry: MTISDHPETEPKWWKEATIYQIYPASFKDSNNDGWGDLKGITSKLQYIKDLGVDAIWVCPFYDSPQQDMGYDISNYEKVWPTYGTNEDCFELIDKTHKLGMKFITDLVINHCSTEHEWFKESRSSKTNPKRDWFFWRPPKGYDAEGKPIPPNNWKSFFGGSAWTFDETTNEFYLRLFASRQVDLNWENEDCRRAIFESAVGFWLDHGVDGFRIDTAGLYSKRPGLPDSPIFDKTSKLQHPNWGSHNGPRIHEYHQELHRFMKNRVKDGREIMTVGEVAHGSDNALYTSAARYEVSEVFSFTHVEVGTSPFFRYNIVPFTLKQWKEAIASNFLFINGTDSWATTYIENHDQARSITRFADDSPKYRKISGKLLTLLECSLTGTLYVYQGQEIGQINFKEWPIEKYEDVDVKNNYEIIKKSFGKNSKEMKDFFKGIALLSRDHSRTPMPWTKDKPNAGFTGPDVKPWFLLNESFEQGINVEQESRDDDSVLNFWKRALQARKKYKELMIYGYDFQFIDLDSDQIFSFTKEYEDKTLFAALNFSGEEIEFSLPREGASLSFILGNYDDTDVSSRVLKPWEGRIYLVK

Target: α-glucosidase from baker's yeast (Saccharomyces cerevisiae, UniProt P53341)
Settings: S4 Table; analogues of previous work; cited from earlier work

Row | Structure (SMILES) | Observed pIC50
1 | CCC(=O)O[C@H]1CC[C@@]2(C)C(CC[C@]3(C)C2CC=C2C4[C@@H](C)[C@H](C)CC[C@]4(C(=O)Nc4ccccc4F)CC[C@]23C)C1(C)C (some centres unmarked) | 5.259
2 | CCC(=O)O[C@H]1CC[C@@]2(C)C(CC[C@]3(C)C2CC=C2C4[C@@H](C)[C@H](C)CC[C@]4(C(=O)Nc4ccccc4Cl)CC[C@]23C)C1(C)C (some centres unmarked) | 4.920
3 | CC(C)C(=O)O[C@H]1CC[C@@]2(C)C(CC[C@]3(C)C2CC=C2C4[C@@H](C)[C@H](C)CC[C@]4(C(=O)O)CC[C@]23C)C1(C)C (some centres unmarked) | 5.487
4 | CCCC(=O)O[C@H]1CC[C@@]2(C)C(CC[C@]3(C)C2CC=C2C4[C@@H](C)[C@H](C)CC[C@]4(C(=O)O)CC[C@]23C)C1(C)C (some centres unmarked) | 5.996
5 | CCC(=O)O[C@H]1CC[C@@]2(C)C(CC[C@]3(C)C2CC=C2C4[C@@H](C)[C@H](C)CC[C@]4(C(=O)Nc4ccc(Cl)cc4)CC[C@]23C)C1(C)C (some centres unmarked) | 5.261
6 | CCC(=O)O[C@H]1CC[C@@]2(C)C(CC[C@]3(C)C2CC=C2C4[C@@H](C)[C@H](C)CC[C@]4(C(=O)O)CC[C@]23C)C1(C)C (some centres unmarked) | 5.575
7 | CCC(=O)O[C@H]1CC[C@@]2(C)C(CC[C@]3(C)C2CC=C2C4[C@@H](C)[C@H](C)CC[C@]4(C(=O)Nc4ccccc4)CC[C@]23C)C1(C)C (some centres unmarked) | 4.826
8 | CCC(=O)O[C@H]1CC[C@@]2(C)C(CC[C@]3(C)C2CC=C2C4[C@@H](C)[C@H](C)CC[C@]4(C(=O)Nc4ccccc4Br)CC[C@]23C)C1(C)C (some centres unmarked) | 4.522
9 | CCC(=O)O[C@H]1CC[C@@]2(C)C(CC[C@]3(C)C2CC=C2C4[C@@H](C)[C@H](C)CC[C@]4(C(=O)Nc4ccc(F)cc4)CC[C@]23C)C1(C)C (some centres unmarked) | 5.336
10 | CCC(=O)O[C@H]1CC[C@@]2(C)C(CC[C@]3(C)C2CC=C2C4[C@@H](C)[C@H](C)CC[C@]4(C(=O)Nc4ccc(OC)cc4)CC[C@]23C)C1(C)C (some centres unmarked) | 5.196
11 | CCC(=O)O[C@H]1CC[C@@]2(C)C(CC[C@]3(C)C2CC=C2C4[C@@H](C)[C@H](C)CC[C@]4(C(=O)Nc4ccc(Br)cc4)CC[C@]23C)C1(C)C (some centres unmarked) | 5.329
